In test [1] the test system is HEK293. Briefly: Selectivity for recombinant HDAC6 expressed in HEK293 cells to recombinant HDAC1 expressed in HEK293 cells. Type of test: cell-based.
The test system of test [2] is HEK293. In words: Selectivity for nuclear HDAC isolated from human HeLa cells to recombinant HDAC1 expressed in HEK293 cells. In kind it is cell-based.

SMILES strings stand for the structures.

Consider `CCSC(=S)SCC(=O)c1ccc(NC(=O)Nc2ccccc2)cc1`, for which the Ratio IC50 is 30 in test [1] and 470 in test [2].
